Literature values in article PMC8261488, “Contraceptive progestins with androgenic properties stimulate breast epithelial cell proliferation” (EMBO Molecular Medicine, 2021).

System: women
Settings: ref Soini et al, 2016; cited from earlier work

For C#C[C@]1(O)CC[C@H]2[C@@H]3CCC4=CC(=O)CC[C@@H]4[C@H]3CC[C@@]21CC [LNG, levonorgestrel], the “RR for lobular breast cancer” value is given as 1.33.
